Laboratory results as given in PubChem BioAssay AID1251 (SRMLSC, 2008).
This is a selection; strong and weak results do not stand in their true shares. Some of these compounds have results that are not shown, active ones among them. Calls of active or inactive are those of the source. Cut-off read from the data, not from the text of the source: active = inhibition above about 30%; inactive = the rest, inconclusive results apart.

test: antivirals against arbovirus infection, primary screen, cell-based, full library, 10K replicate subset (AID 1251); conditions: arbovirus infection cell-based antiviral screen; at 10 µM; hits give high values

Compound | inhibition
C=CCN1CCN(CCOC(=O)C(O)(c2ccccc2)c2ccccc2)CC1 | inactive: 1.13%
CCN1CCCC(OC(=O)C2(O)c3ccccc3C=Cc3ccccc32)C1 (centres undefined) | inactive: 13.9%
Cc1ccccc1C(=O)NCC1(N2CCCCC2)CCCCC1 | inactive: 10.1%
CN(C)C1CCCC1OC(=O)C(O)(c1ccccc1)c1ccccc1 (centres undefined) | inactive: -6.94%
CC(C)N1C(=O)CC2(CCN(CCOC(=O)C(O)(c3ccccc3)c3ccccc3)CC2)C1=O | inactive: 5.34%
O=C(NCC1(N2CCCCC2)CCCCC1)c1cc([N+](=O)[O-])ccc1Cl | inactive: -1.95%
CN(C)c1cccc(C(=O)NCC2(N(C)C)CCCCC2)c1 | inactive: -2.59%
O=C(OC1CN2CCC1CC2)C(CO)(c1ccccc1)c1ccccc1 (centres undefined) | inactive: 9.99%
COc1cccc(C(=O)NCC2(N3CCCCC3)CCCCC2)c1 | inactive: 13.1%
